Target: Bromodomain-containing protein 2 (Homo sapiens, UniProt P25440)
Test: Binding affinity to human recombinant BRD2 BD2 (349 to 460 residues) by fluorescence polarization assay

Amino acid sequences for entries named in this document (tags omitted).
UniProt P25440, whole entry: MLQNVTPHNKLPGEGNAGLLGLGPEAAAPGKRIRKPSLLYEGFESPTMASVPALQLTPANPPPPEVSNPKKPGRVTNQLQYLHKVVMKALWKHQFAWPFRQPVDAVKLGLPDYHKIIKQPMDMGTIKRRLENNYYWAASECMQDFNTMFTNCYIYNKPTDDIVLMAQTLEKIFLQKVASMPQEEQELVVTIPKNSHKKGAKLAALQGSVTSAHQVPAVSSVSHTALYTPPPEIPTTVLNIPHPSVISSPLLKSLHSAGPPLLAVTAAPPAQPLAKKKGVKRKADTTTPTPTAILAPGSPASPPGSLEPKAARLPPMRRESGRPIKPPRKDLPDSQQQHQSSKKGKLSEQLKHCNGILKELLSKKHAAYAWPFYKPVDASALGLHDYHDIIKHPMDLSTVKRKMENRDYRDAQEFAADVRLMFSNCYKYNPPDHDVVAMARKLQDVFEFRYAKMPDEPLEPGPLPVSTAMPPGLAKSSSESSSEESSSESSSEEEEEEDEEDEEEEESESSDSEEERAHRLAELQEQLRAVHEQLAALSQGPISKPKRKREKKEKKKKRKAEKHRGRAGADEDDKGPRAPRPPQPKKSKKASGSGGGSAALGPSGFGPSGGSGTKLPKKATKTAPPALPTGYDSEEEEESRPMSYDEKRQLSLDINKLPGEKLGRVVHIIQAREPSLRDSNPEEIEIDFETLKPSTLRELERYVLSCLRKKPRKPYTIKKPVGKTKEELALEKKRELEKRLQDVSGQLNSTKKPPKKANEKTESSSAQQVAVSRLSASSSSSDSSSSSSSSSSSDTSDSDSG

Compound: Cc1sc2c(c1C)C(c1ccc(Cl)cc1)=N[C@@H](CC(=O)Nc1ccc(O)cc1)c1nnc(C)n1-2 [BIRABRESIB]
- Ki: 10.3 nM

— ChEMBL document CHEMBL4359905, “Discovery, structural insight, and bioactivities of BY27 as a selective inhibitor of the second bromodomains of BET proteins” (Eur J Med Chem, 2019)
